Assay results taken from patent publication US6900050 (ROCKEFELLER UNIVERSITY, dated 2005).

What was measured:
[1] = target: T1, TRAF1 expressed in 293 cells (UniProt P39428 1-409); experiment: glutathione-Sepharose coprecipitation from 293 cells, Western blot (control)
T1 construct: Called a homo-oligomer; also called TRAF1 homo-oligomer; TRAF1 oligomer
T1 sequence (looked up): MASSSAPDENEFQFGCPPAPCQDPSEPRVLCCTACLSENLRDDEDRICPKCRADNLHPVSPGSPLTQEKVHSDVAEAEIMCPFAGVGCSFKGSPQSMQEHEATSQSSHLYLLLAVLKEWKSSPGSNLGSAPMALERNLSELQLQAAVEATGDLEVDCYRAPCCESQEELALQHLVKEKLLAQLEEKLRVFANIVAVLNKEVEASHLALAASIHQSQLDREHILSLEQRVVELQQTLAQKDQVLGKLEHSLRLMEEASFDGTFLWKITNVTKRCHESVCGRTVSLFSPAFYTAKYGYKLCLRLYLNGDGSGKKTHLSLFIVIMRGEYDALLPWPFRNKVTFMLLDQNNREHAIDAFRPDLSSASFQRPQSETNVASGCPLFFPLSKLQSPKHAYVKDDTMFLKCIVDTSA
Description: (§1) Cell lysates were precipitated with glutathione-Sepharose beads, and analyzed by Western blot analysis with anti-TRAF1 or anti-TRAF2 antibodies. The 293 cells were transfected with various combinations of expression vectors and thirty-six hours after transfection, cells were harvested in phosphate-buffered saline/1 mM phenylmethylsulfonyl fluoride, pelleted, and lysed in lysis buffer (20 mM Hepes (pH 7.9), 100 mM KCl, 300 mM NaCl, 10 mM EDTA, 0.1% NP-40, plus protease inhibitors). After lysis, aliquots of cell lysates were incubated with glutathione-Sepharose (Pharmacia) for 2 hr at 4° C. […]
(§2) However, since the interaction of TRAFs with the cognate members of the TNFR superfamily is mediated through the TRAF-C domain rather than the entire TRAF domain, it was-important to determine whether TRIP can indirectly interact with the receptors through TRAFs. […] Cell lysates were precipitated with glutathione-Sepharose beads, and analyzed on Western blots with anti-HA, anti-TRAF1, and anti-TRAF2 antibodies. […]
(§3) Aliquots of cell lysates were subjected for purification with glutathione-Sepharose beads as described in Experimental Procedures. Proteins coprecipitated with GST-fusion proteins were analyzed by Western analysis with an anti-HA mAb (12CA5), and anti-TRAF1- or anti-TRAF2-polyclonal antibodies.

[2] = target: T2, TRAF2 expressed in 293 cells (UniProt P39429 1-501); experiment: as above
T2 construct: Called a homo-oligomer; also called TRAF2 homo-oligomer
T2 sequence (looked up): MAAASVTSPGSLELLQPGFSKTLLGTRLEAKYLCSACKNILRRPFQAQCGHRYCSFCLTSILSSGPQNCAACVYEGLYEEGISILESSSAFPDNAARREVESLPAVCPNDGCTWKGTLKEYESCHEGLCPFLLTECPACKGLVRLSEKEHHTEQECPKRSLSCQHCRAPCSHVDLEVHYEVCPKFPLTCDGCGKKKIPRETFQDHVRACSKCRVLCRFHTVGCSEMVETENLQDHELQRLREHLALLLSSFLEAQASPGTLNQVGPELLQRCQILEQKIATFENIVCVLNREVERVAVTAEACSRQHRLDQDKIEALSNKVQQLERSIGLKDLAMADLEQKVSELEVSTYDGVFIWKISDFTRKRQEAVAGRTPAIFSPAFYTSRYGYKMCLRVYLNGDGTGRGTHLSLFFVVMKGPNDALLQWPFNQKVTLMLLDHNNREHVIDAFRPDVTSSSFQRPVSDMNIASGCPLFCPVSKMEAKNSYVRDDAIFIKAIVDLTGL
Description: as §1, §2, §3

B1: GST alone (control) (other, UniProt P08515 1-218, looked up)
chain: MSPILGYWKIKGLVQPTRLLLEYLEEKYEEHLYERDEGDKWRNKKFELGLEFPNLPYYIDGDVKLTQSMAIIRYIADKHNMLGGCPKERAEISMLEGAVLDIRYGVSRIAYSKDFETLKVDFLSKLPEMLKMFEDRLCHKTYLNGDHVTHPDFMLYDALDVVLYMDPMCLDAFPKLVCFKKRIEAIPQIDKYLKSSKYIAWPLQGWQATFGGGDHPPK
notes: Control for the glutathione-Sepharose coprecipitations; also called GST proteins
B1: no binding [1]; no binding [2].
